Experimental data as given in PMC11272584 (Nature Metabolism, 2024).
Numbering of substitutions follows the chain as printed.

What was measured:
GIPR M67R = biological target: T1, GIPR M67R (Homo sapiens, UniProt P48546, M67R); conditions: GIPR M67R (ECD), mean, n = 6, duplicate
T1 sequence (P48546 22-466 M67R): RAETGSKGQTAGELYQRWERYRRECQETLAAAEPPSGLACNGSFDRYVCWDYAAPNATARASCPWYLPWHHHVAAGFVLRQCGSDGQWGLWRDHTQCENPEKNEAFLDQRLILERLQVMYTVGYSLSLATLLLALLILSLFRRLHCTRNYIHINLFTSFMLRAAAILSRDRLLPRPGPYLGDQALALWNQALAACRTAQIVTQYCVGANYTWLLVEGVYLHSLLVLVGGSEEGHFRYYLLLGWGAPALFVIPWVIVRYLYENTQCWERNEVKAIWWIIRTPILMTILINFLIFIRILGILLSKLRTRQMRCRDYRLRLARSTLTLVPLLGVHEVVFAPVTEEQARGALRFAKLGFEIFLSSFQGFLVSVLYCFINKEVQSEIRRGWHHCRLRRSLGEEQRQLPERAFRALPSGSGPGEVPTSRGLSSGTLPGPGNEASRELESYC

GIPR S382Y = biological target: T2, GIPR S382Y (Homo sapiens, UniProt P48546, S382Y); test: cAMP accumulation; type: cell-based
T2 construct: host or cells: HEK293

GIPR P195R = biological target: T3, GIPR P195R (Homo sapiens, UniProt P48546, P195R); test: cAMP accumulation; type: cell-based; parameters: host or cells: HEK293
T3 sequence (P48546 22-466 P195R): T1 sequence (P48546 22-466 M67R) with R46M, P174R

GIPR R164Q = biological target: T4, GIPR R164Q (Homo sapiens, UniProt P48546, R164Q); conditions: GIPR R164Q (ICL1), mean, n = 5, duplicate
T4 sequence (P48546 22-466 R164Q): T1 sequence (P48546 22-466 M67R) with R46M, R143Q

GIPR R183Q = biological target: T5, GIPR R183Q (Homo sapiens, UniProt P48546, R183Q); conditions: GIPR R183Q (2.60); normalized to WT GIPR; mean, n = 5, duplicate
T5 sequence (P48546 22-466 R183Q): T1 sequence (P48546 22-466 M67R) with R46M, R162Q

GIPR K397N = biological target: T6, GIPR K397N (Homo sapiens, UniProt P48546, K397N); test: cAMP accumulation; type: cell-based; parameters: host or cells: HEK293
T6 sequence (P48546 22-466 K397N): T1 sequence (P48546 22-466 M67R) with R46M, K376N

[1] = HEK293, GIP(1–42) 1 pM–100 nM, 30 min 37 °C, mean of n = 6
[2] = HEK293, Hill slope 1.0, mean of n = 6

“glucose-dependent insulinotropic polypeptide [GIP]” was tested, and the “logEC50 (Arrestin)” value (GIPR M67R; Hill slope 1.0) was -8.2, the “Arrestin (Emax)” value (GIPR M67R; normalized to WT GIPR) was 145 and the “cAMP (Emax)” value (GIPR S382Y; [1]) was 43 % of WT GIPR activity. The “logEC50 (cAMP)” value (GIPR S382Y; [2]) was -6.6, the “cAMP (Emax)” value (GIPR P195R; [1]) was 16 % of WT GIPR activity and the “logEC50 (cAMP)” value (GIPR P195R; [2]) was -10.4. For the same substance, the “logEC50 (Arrestin)” value (GIPR R164Q; Hill slope 1.0) was -8.9, the “Arrestin (Emax)” value (GIPR R164Q; normalized to WT GIPR) was 31 and the “Arrestin (Emax)” value (GIPR R183Q) was 4. The “cAMP (Emax)” value (GIPR K397N; HEK293, GIP(1–42) 1 pM–100 nM, 30 min 37 °C, mean of n = 3) was 68 % of WT GIPR activity and the “logEC50 (cAMP)” value (GIPR K397N; HEK293, Hill slope 1.0, mean of n = 3) was -10.7.
